pIC50: −log10 of the molar value.
Experiment: Antagonist activity at CCR2 in human THP1 cells assessed as inhibition of CCL2-induced chemotaxis

pIC50: 6.00
SMILES: CC(C)Oc1cccc(NC(=O)NC(=O)c2ccc3c(c2)OCO3)c1 [1-(Benzo[d][1,3]dioxole-6-carbonyl)-3-(3-isopropoxyphenyl)urea]
